Growth score data for one compound are collected here from patent publication US20010036948A1 (priority 1998, published 2001).

The experiment concerns T/G Human Aortic Smooth Muscle Cells. It is filed as cell-based.

Each structure is given as a SMILES string.
Note: key: −: Lethal treatment, no cells left viable, all rounded, shriveled and dead; −/+: Some treated cells remain viable, about equal amount of clearly dead cells; +/−: Most cells remain viable, detectable number of dead cells; 1+: All cells appear viable, same density as when treated; 2+: Minimal proliferation, compared to control; 3+: Moderate proliferation compared to control; 4+: Maximal growth, unaffected by treatment.

With `CS(=O)(=O)OCCCCOS(C)(=O)=O` [Busulfan, busulfan, reference compound], the Growth score is 4+.
